# Experimental data: patent US20220193043A1 (CIPLA LIMITED, priority 2019, published 2022)
# Like-named read-outs stand apart in the source and are kept apart here.
# Legend:
# [1] = rat plasma, tizanidine form 3 mg/kg, resveratrol 44 mg/kg, piperine 2 mg/kg where co-administered
# Protocol: Bioanalysis was performed using a fit-for-purpose LC-MS/MS method for the quantification of tenofovir in rat plasma samples. The calibration curve (CC) for the method consisted of nine non-zero calibration standards along with a double blank and zero standard samples. Study samples were analyzed along with three sets of quality control samples (18 QC samples; low, medium and high QC samples). Plasma pharmacokinetic parameters were calculated using the non-compartmental analysis tool of Phoenix software (Version 6.3) and were determined from individual animals in each group. The peak plasma concentration (Cmax), time to achieve peak plasma concentration (Tmax), the area under the plasma concentration-time curve (AUC0-t and AUCinf), AUC Extra (%), elimination half-life (T1/2), clearance (CL), volume of distribution Vd (L/kg) and Mean residence time (MRT) were calculated from intravenous group. The peak plasma concentration (Cmax), time to achieve peak plasma concentration (Tmax), AUC0-t and AUCinf, AUC Extra (%), Mean residence time (MRT) and absolute oral bioavailability (F) were calculated from the oral group.
# [2] = rat plasma, 3 mg/kg PO
# Protocol: Bioanalysis was performed using a fit-for-purpose LC-MS/MS method for the quantification of tenofovir in rat plasma samples. The calibration curve (CC) for the method consisted of nine non-zero calibration standards along with a double blank and zero standard samples. Study samples were analyzed along with three sets of quality control samples (18 QC samples; low, medium and high QC samples).
# Plasma pharmacokinetic parameters were calculated using the non-compartmental analysis tool of Phoenix software (Version 6.3) and were determined from individual animals in each group. The peak plasma concentration (C), time to achieve peak plasma concentration (Tmax), the area under the plasma concentration-time curve (AUC0-t and AUCinf), AUC Extra (%), elimination half-life (T1/2), clearance (CL), volume of distribution Vd (L/kg) and Mean residence time (MRT) were calculated from intravenous group. The peak plasma concentration (C), time to achieve peak plasma concentration (T), AUC0-t and AUCinf, AUC Extra (%), Mean residence time (MRT) and absolute oral bioavailability (F) were calculated from the oral group.
substance,measurement,setting,value
Tizanidine hydrochloride [Tizanidine HCl],CLF_Obs(PO),[1],462 ± 83.5 mL/min/kg
same,CLF_Obs(PO),[2],462 ± 83.5 mL/min/kg
